# Data from ChEMBL document CHEMBL1129511 (J Med Chem, 1996).
# Test system: LoVo
# Assay: Inhibitory concentration was evaluated against colorectal tumar cell line LoVo
# Assay type: functional, cell-based, Homo sapiens
# Procedure, shortened: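 Cells were exposed to compound in microtitre plates for 1 h, washed, then grown a further 3 days at 37 °C. They were fixed with TCA, and adherent cellular protein was measured by SRB staining. IC50 is the concentration giving 50% growth inhibition.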
row,SMILES,IC50
1,Nc1ccc(N(CCCl)CCCl)cc1,1.8 µM
2,Oc1ccc(N(CCCl)CCCl)cc1,1 µM
3,O=C(O)Cc1ccc(N(CCCl)CCCl)cc1,19 µM
4,O=C(O)c1ccc(N(CCCl)CCCl)cc1,> 100 µM
5,Sc1ccc(N(CCCl)CCCl)cc1,100 µM
